From PubChem
GALK inhibitor: blocks human galactokinase activity; AID 1868; Potency, µM (series often up to 57.5 µM), hits mostly inhibitors; Purified GALK, Kinase-Glo residual ATP luminescence; P51570; 270,000 compounds, 0.007% hits
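Luminescence from leftover ATP (Ultra-Glo luciferase/luciferin) served as read-out after a 1 h room-temperature reaction of 5 nM GALK with 35 uM ATP and 100 uM galactose.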
PI4K2A block: blocks human PI4K2A kinase activity | activity change, negative = inhibition, % at 76.9 µM | AID 1346378 | Q9BTU6 | 420,000 compounds, 0.13% hits | purified PI4K2A, ADP-Glo luminescence, 1 h; stronger effect = lower value; in the data active = activity change below about -50%; inconclusive = mostly about -30% to -49%
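Compounds are screened against recombinant PI4K2A using PI as substrate and ATP, the latter dispensed at 300 microM. Reactions run one hour at ambient temperature before ADP-Glo detection; full inhibition defined by wells lacking enzyme.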
Nrf2 ARE act: Nrf2 pathway activation; AREc32 ARE-luciferase reporter (MCF7-derived line), luminescence, 24 h; AID 624171; Potency, µM (doses to about 46.1 µM), most hits filed as activators; 410,000 compounds, 0.31% hits; note: nearly all actives have a fitted effect of over 65% in size
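For detection, Steady-Glo was added and plates sat 30 min at RT; before that, AREc32_Fluc cells grown overnight in OPTI-MEM/5% FBS had been treated with 23 nL compound for 24 hr at 37 deg C.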
A549 tox-1: kills or reduces viability of A549 cells in Nrf2 counter-screen. A549 ARE-Fluc cells, CellTiter-Fluor viability, 18-24 h. Potency, µM (titrated, usually from 46 µM), hits mostly inhibitors. 390,000 compounds, 0.16% hits
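Cytotoxicity counterscreen: CellTiter-Fluor fluorescence was measured in A549 ARE_Fluc cells after 18-24 h of compound exposure in a concentration series. The subsequent BugLite luminescent read reports ARE-luciferase activity.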
Nrf2 inh: inhibitors of Nrf2 signaling. A549 ARE-Fluc reporter, luciferase luminescence, 18-24 h. Potency, µM (highest dose often 46 µM), actives largely listed as inhibitors. 360,000 compounds, 2.1% hits. AID 504444; note: nearly all actives have a fitted effect of over 60% in size
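Cells were seeded and rested 2 h, then exposed to compounds for 18-24 h. CellTiter-Fluor was read first as a viability measure. BugLite was added 15 min before the final luminescent read of ARE-luciferase activity in A549 cells.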
miR-21 FLuc: raises the signal of a miR-21 reporter | HeLa miR-21 FLuc reporter, luciferase, 48 h | Potency, µM (doses to about 38.3 µM) | 340,000 tested, under 10 active | AID 2288; active = well fitted rising curve with a large enough effect; inconclusive = small, poorly fitted or top-dose-only effect; inactive = no such curve, though single readings can be large or run the other way;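 note: miR-21 action dims this reporter so a rising signal means less miR-21 action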
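Luminescence from a firefly luciferase reporter carrying a miR-21 binding site downstream, stably expressed under a CMV promoter in HeLa cells that make miR-21 endogenously, reports miRNA modulation after 48 h compound exposure up to approximately 40uM final.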
FLuc counter 3: firefly luciferase inhibition, Nrf2 hit validation | AID 720522 | shares compounds with Nrf2 inh | Potency, µM (titrated, usually from 57.5 µM), most hits filed as inhibitors | purified firefly luciferase, luminescence inhibition | 1,400 compounds, 4% hits; note: nearly all actives have a fitted effect of over 65% in size
A549 tox-2: A549 cytotoxicity, Nrf2 inhibitor counterscreen; shares compounds with Nrf2 inh; 1,400 compounds, 2% hits; Potency, µM (top dose mostly 46.1 µM), hits mostly inhibitors; A549 ARE-Fluc cells, cytotoxicity counterscreen;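 note: cells exposed to compounds for 18 to 24 hours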
ARE-Fluc inh: reduces Nrf2 ARE reporter signal in A549 cells; AID 720524; shares compounds with Nrf2 inh; A549 ARE-firefly luciferase reporter, luminescence; 1,400 compounds, 74% hits; Potency, µM (titrated, usually from 46.1 µM), hits mostly inhibitors; note: nearly all actives have a fitted effect of over 65% in size
Numbers stand for hits; n = inactive; u = inconclusive; x = no result shown; [ ] = remark or other dose. This is a sample that favours compounds with a hit; in the whole collection about 2.2% have one here. Unless noted, calls come from the whole dose curve; as a rule, active = well fitted curve in the direction sought with a large enough effect; inconclusive = small, poorly fitted or top-dose-only effect, or another doubt; inactive = no such curve, though single readings can be large; an effect the other way counts as inactive or inconclusive.

SMILES	GALK inhibitor	PI4K2A block	Nrf2 ARE act	A549 tox-1	Nrf2 inh	miR-21 FLuc	FLuc counter 3	A549 tox-2	ARE-Fluc inh
Cc1ccc(C(=O)n2nc(-c3cccnc3)nc2N)cc1	n	n	n	n	1.3µM	n	n	n	4.6µM
CCCN(CCC)S(=O)(=O)c1ccc(C(=O)Nc2nnc(-c3cccc(OC)c3)o2)cc1	x	n	n[9.22 µM]	u	6.5µM	n	n	u	4.6µM
CC1CCCCN1S(=O)(=O)c1ccc(C(=O)Nc2nnc(-c3ccccc3Cl)o2)cc1 (stereo unspecified)	n	n	n	u	5.2µM	n	n	u	6.5µM
CCN(c1ccccc1)S(=O)(=O)c1ccc(C(=O)Nc2nnc(-c3ccco3)o2)cc1	n	n	n	n	5.2µM	u	n	n	5.2µM
CC1(C)COCN1S(=O)(=O)c1ccc(C(=O)Nc2nnc(-c3ccc(Cl)s3)o2)cc1	n	n	n	u	6.3µM	n	n	u	5.2µM
C=C1C[C@@]23CC[C@H]4[C@@](C)(CCC[C@@]4(C)C(=O)OC4OC(CO)C(O)C(O)C4O)[C@@H]2CC[C@]1(OC1OC(CO)C(O)C(O)C1OC1OC(CO)C(O)C(O)C1O)C3 (stereo partly specified)	x	n	x	x	x	x	x	x	x
CS(=O)(=O)c1ccccc1-c1nnc(NC(=O)c2ccc(S(=O)(=O)N3CCCC3)cc2)o1	x	n	n	n	n	x	x	x	x
CC1CCCN(S(=O)(=O)c2ccc(C(=O)Nc3nnc(-c4ccco4)o3)cc2)C1 (stereo unspecified)	n	n	n	n	8.2µM	n	n	u	x
CCc1nnc(NC(=O)c2ccc(S(=O)(=O)N3CCCC(C)C3)cc2)o1 (stereo unspecified)	n	n	n	n	u	n	x	x	x
O=C(Nc1nnc(-c2ccccc2Cl)o1)c1ccc(S(=O)(=O)N2CCCCCC2)cc1	n	n	n	n	u	n	n	u	21µM
CCOc1ccc(C(=O)Nc2ccc(S(=O)(=O)N(Cc3ccccc3)c3ccccc3)cc2)cc1	x	n	n	n	2.1µM	u	n	n	1.6µM
O=C(NC1CCCC1)c1ccc(COc2ccccc2)o1	x	n	x	x	x	x	x	x	x
CNc1cccnc1C=NNC(N)=S	x	n	n	u	0.58µM	x	n	n	1.5µM
O=C(CCCc1nc(-c2ccc(Cl)cc2)no1)NC1CCCCC1	n	n	n	n	3.7µM	n	n	n	x
O=C(CCCc1nc(-c2ccccc2Cl)no1)NC1CCCC1	n	n	n	n	1.2µM	u	u	n	4.6µM
CC(=O)Nc1c(-c2ccc(F)cc2)nc2ncccn12	x	n	x	x	x	x	x	x	x
CCC(=O)[C@@]1(C)[C@H](C)C[C@H]2[C@@H]3CCC4=CC(=O)C=C[C@]4(C)[C@H]3[C@@H](O)C[C@@]21C	x	n	n	n	0.016µM	x	n	n	0.018µM
CCCC1OC2CC3C4CCC5=CC(=O)C=CC5(C)C4C(O)CC3(C)C2(C(=O)O)O1 (stereo unspecified)	n	n	n	n	0.46µM	n	n	n	1.3µM
CCCC1O[C@@H]2C[C@H]3[C@@H]4CCC5=CC(=O)C=C[C@]5(C)[C@H]4[C@@H](O)C[C@]3(C)[C@]2(C(=O)CO)O1 (stereo partly specified)	n	n	n	n	u	n	x	x	x
CCCN1C(=O)c2ccccc2NC1c1ccc(OC)c(COc2ccc([N+](=O)[O-])c(C)c2)c1 (stereo unspecified)	x	x	x	n	u	x	x	x	x
